PubChem BioAssay (NCI)
Some of these compounds have results that are not shown, active ones among them.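 Five compound concentrations were applied to cells in 96-well plates for 48 hours; endpoints were derived by simple linear interpolation of the resulting dose-response curve. Abbreviation: GI50, concentration required for 50% inhibition of growth. TGI: concentration producing complete growth inhibition.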

Assays:
Test in all cases: DTP human tumour cell line panel, 48 h
[1] = system: HCT-15 colon
[2] = system: COLO 205 colon
[3] = system: SK-MEL-2 melanoma
[4] = system: NCI-H460 lung
[5] = system: HT29 colon
[6] = system: HCC-2998 colon
[7] = system: MCF7 breast
[8] = system: CAKI-1 renal
[9] = system: UACC-257 melanoma
[10] = system: 786-0 renal
[11] = system: BT-549 breast
[12] = system: MDA-MB-435
[13] = system: EKVX NSCLC
[14] = system: RPMI-8226 leukemia
[15] = system: HL-60(TB) leukemia
[16] = system: PC-3 prostate
[17] = system: ACHN renal
[18] = system: A498 renal
[19] = system: MALME-3M melanoma
[20] = system: UACC-62 melanoma
[21] = system: NCI-H23 lung
[22] = system: NCI-H322M lung
[23] = system: SNB-75 CNS
[24] = system: SK-OV-3 ovarian
[25] = system: M14 melanoma
[26] = system: SNB-19 CNS
[27] = system: LOX IMVI melanoma
[28] = system: SF-295 CNS
[29] = system: OVCAR-4 ovarian
[30] = system: OVCAR-8 ovarian
[31] = system: HOP-92 NSCLC
[32] = system: DU-145 prostate
[33] = system: U251 CNS
[34] = system: MDA-MB-231 breast
[35] = system: SW-620 colon
[36] = system: SN12C renal
[37] = system: KM12 colon
[38] = system: HOP-62 NSCLC
[39] = system: K-562 leukemia
[40] = system: NCI-H522 lung
[41] = system: UO-31 renal
[42] = system: OVCAR-3 ovarian
[43] = system: MDA-N
[44] = system: SF-539 CNS
[45] = system: TK-10 renal
[46] = system: T-47D breast
[47] = system: RXF 393 renal
[48] = system: SK-MEL-28 melanoma
[49] = system: CCRF-CEM leukemia
[50] = system: IGROV1 ovarian
[51] = system: MOLT-4 leukemia
[52] = system: SF-268 CNS
[53] = system: SK-MEL-5 melanoma
[54] = system: HS 578T breast
[55] = system: SR leukemia
[56] = system: NCI/ADR-RES ovarian
[57] = system: NCI-H226 lung
[58] = system: HCT-116 colon
[59] = system: A549 NSCLC
[60] = system: OVCAR-5 ovarian

In the case of `CN1CCC(OC(=O)C(O)(c2ccccc2)c2cccc3c2OC(C)(C)C3)CC1` (stereo unspecified), the TGI [1] is reported as > 100 µM, the TGI [2] is reported as 52.8 µM and the TGI [3] is reported as 86.7 µM. The TGI [4] was > 100 µM, the TGI [5] was 65.8 µM and the TGI [6] was 69.6 µM. The TGI [7] was > 100 µM, the TGI [8] was > 100 µM and the TGI [9] was 37 µM. For the same compound, the TGI [10] was > 100 µM, the TGI [11] was > 100 µM and the TGI [12] was > 100 µM. The TGI [13] was > 100 µM, the TGI [14] was 84 µM and the TGI [15] was 87.3 µM. The TGI [16] was > 100 µM, the TGI [17] was > 100 µM and the TGI [18] was > 100 µM. The TGI [19] was 40.4 µM, the TGI [20] was > 100 µM and the TGI [21] was > 100 µM. For the same compound, the TGI [22] was > 100 µM, the TGI [23] was 81.3 µM and the TGI [24] was > 100 µM. The TGI [25] was 33.5 µM, the TGI [26] was > 100 µM and the TGI [27] was 70.5 µM. The TGI [28] was > 100 µM, the TGI [29] was > 100 µM and the TGI [30] was > 100 µM. For the same compound, the TGI [31] was 89.2 µM, the TGI [32] was > 100 µM and the TGI [33] was > 100 µM. For the same compound, the TGI [34] was > 100 µM, the TGI [35] was > 100 µM and the TGI [36] was > 100 µM. For the same compound, the TGI [37] was > 100 µM, the TGI [38] was > 100 µM and the TGI [39] was 90.1 µM. For the same compound, the TGI [40] was > 100 µM, the TGI [41] was > 100 µM and the TGI [42] was > 100 µM. For the same compound, the TGI [43] was > 100 µM, the TGI [44] was > 100 µM and the TGI [45] was > 100 µM. For the same compound, the TGI [46] was 99.4 µM, the TGI [47] was > 100 µM and the TGI [48] was 37 µM. For the same compound, the TGI [49] was > 100 µM, the TGI [50] was 46.4 µM and the TGI [51] was 91.2 µM. For the same compound, the TGI [52] was > 100 µM, the TGI [53] was 31.6 µM and the TGI [54] was 90.3 µM. For the same compound, the TGI [55] was 53.7 µM, the TGI [56] was > 100 µM and the TGI [57] was > 100 µM. The TGI [58] was > 100 µM, the TGI [59] was > 100 µM and the TGI [60] was > 100 µM.

For `C=C(C)C#CC(O)(C(=O)OC1CN2CCC1CC2)c1ccccc1` (stereo unspecified), the GI50 [1] was > 100 µM, the TGI [1] was > 100 µM and the GI50 [2] was > 100 µM. The TGI [2] was > 100 µM, the GI50 [3] was > 100 µM and the TGI [3] was > 100 µM. For the same compound, the GI50 [4] was > 100 µM, the TGI [4] was > 100 µM and the GI50 [5] was > 100 µM. The TGI [5] was > 100 µM, the GI50 [6] was > 100 µM and the TGI [6] was > 100 µM. The GI50 [7] was > 100 µM, the TGI [7] was > 100 µM and the GI50 [8] was > 100 µM. The TGI [8] was > 100 µM, the GI50 [9] was > 100 µM and the TGI [9] was > 100 µM. For the same compound, the GI50 [10] was > 100 µM, the TGI [10] was > 100 µM and the GI50 [11] was > 100 µM. For the same compound, the TGI [11] was > 100 µM, the GI50 [12] was > 100 µM and the TGI [12] was > 100 µM. The GI50 [13] was > 100 µM, the TGI [13] was > 100 µM and the GI50 [14] was > 100 µM. The TGI [14] was > 100 µM, the GI50 [15] was > 100 µM and the TGI [15] was > 100 µM. The GI50 [16] was > 100 µM, the TGI [16] was > 100 µM and the GI50 [17] was > 100 µM. For the same compound, the TGI [17] was > 100 µM, the GI50 [18] was > 100 µM and the TGI [18] was > 100 µM. The GI50 [19] was > 100 µM, the TGI [19] was > 100 µM and the GI50 [20] was > 100 µM. The TGI [20] was > 100 µM, the GI50 [21] was > 100 µM and the TGI [21] was > 100 µM. The GI50 [23] was > 100 µM, the TGI [23] was > 100 µM and the GI50 [24] was > 100 µM. The TGI [24] was > 100 µM, the GI50 [25] was > 100 µM and the TGI [25] was > 100 µM. For the same compound, the GI50 [26] was > 100 µM, the TGI [26] was > 100 µM and the GI50 [27] was > 100 µM. The TGI [27] was > 100 µM, the GI50 [28] was > 100 µM and the TGI [28] was > 100 µM. The GI50 [29] was > 100 µM, the TGI [29] was > 100 µM and the GI50 [30] was > 100 µM. The TGI [30] was > 100 µM, the GI50 [31] was > 100 µM and the TGI [31] was > 100 µM. The GI50 [32] was > 100 µM, the TGI [32] was > 100 µM and the GI50 [33] was > 100 µM. For the same compound, the TGI [33] was > 100 µM, the GI50 [34] was > 100 µM and the TGI [34] was > 100 µM. For the same compound, the GI50 [35] was > 100 µM, the TGI [35] was > 100 µM and the GI50 [36] was > 100 µM. For the same compound, the TGI [36] was > 100 µM, the GI50 [37] was > 100 µM and the TGI [37] was > 100 µM. The GI50 [38] was > 100 µM, the TGI [38] was > 100 µM and the GI50 [39] was 36.5 µM. For the same compound, the TGI [39] was > 100 µM, the GI50 [41] was > 100 µM and the TGI [41] was > 100 µM. For the same compound, the GI50 [42] was > 100 µM, the TGI [42] was > 100 µM and the GI50 [43] was > 100 µM. The TGI [43] was > 100 µM, the GI50 [44] was > 100 µM and the TGI [44] was > 100 µM. For the same compound, the GI50 [45] was > 100 µM, the TGI [45] was > 100 µM and the GI50 [46] was > 100 µM. For the same compound, the TGI [46] was > 100 µM, the GI50 [47] was > 100 µM and the TGI [47] was > 100 µM. For the same compound, the GI50 [48] was > 100 µM, the TGI [48] was > 100 µM and the GI50 [49] was > 100 µM. For the same compound, the TGI [49] was > 100 µM, the GI50 [50] was > 100 µM and the TGI [50] was > 100 µM. The GI50 [51] was > 100 µM, the TGI [51] was > 100 µM and the GI50 [52] was > 100 µM. The TGI [52] was > 100 µM, the GI50 [53] was > 100 µM and the TGI [53] was > 100 µM. For the same compound, the GI50 [54] was > 100 µM, the TGI [54] was > 100 µM and the GI50 [55] was > 100 µM. The TGI [55] was > 100 µM, the GI50 [56] was > 100 µM and the TGI [56] was > 100 µM. The GI50 [57] was > 100 µM, the TGI [57] was > 100 µM and the GI50 [58] was > 100 µM. For the same compound, the TGI [58] was > 100 µM, the GI50 [59] was > 100 µM and the TGI [59] was > 100 µM. The GI50 [60] was > 100 µM and the TGI [60] was > 100 µM.
